Results published in patent US8686113B2 (priority 2009, dated 2014).

System: human erythrocytes
Test: Hemolysis test
Assay type: cell-based
Settings: 1 h at 37° C., relative to Triton X-100
From the text: Another possibility for investigating the cytotoxicity of the peptides and peptide derivatives is the hemolysis test. The hemolytic activity is investigated on human erythrocytes (Ryge T S & Hansen P R. Potent antibacterial lysine-peptoid hybrids identified from a positional scanning combinatorial library. Bioorganic & Medicinal Chemistry 14: 4444-51, 2006), which the Leipzig University Hospital (Germany) made available as human erythrocyte concentrate in sodium chloride-adenine-glucose-mannitol buffer (stored at 4° C.). The erythrocytes were centrifuged off at 1000 g and washed three times with ten times the volume of cold phosphate-buffered saline (PBS, pH 7.4). The erythrocytes were diluted to a final concentration of 1% in PBS. […] 100 μL was taken from the supernatant, transferred to a 96-well flat-bottomed polystyrene microtiter plate (Greiner Bio-One GmbH) and the absorption was determined at 405 nm in a Sunrise microtiter plate reader (Tecan Trading AG, Mannedorf, Switzerland), to evaluate the release of the heme group. […] All hemolysis tests were carried out twice independently as double determination and the degree of hemolysis was determined from the following equation (Park Y et al. A Leu-Lys-rich antimicrobial peptide: activity and mechanism. Biochimica et Biophysica Acta-Proteins and Proteomics 1645: 172-82, 2003): Epeptide−EPBS)/ETriton−EPBS)×100% E=extinction at 405 nm

SMILES: CC[C@H](C)[C@H](NC(=O)CN)C(=O)NCC(=O)N[C@@H](C)C(=O)N[C@H](C(=O)N[C@@H](CC(C)C)C(=O)N[C@@H](CCCCN)C(=O)N[C@H](C(=O)N[C@@H](CC(C)C)C(=O)N[C@H](C(=O)N[C@H](C(=O)NCC(=O)N[C@@H](CC(C)C)C(=O)N1CCC[C@H]1C(=O)N[C@@H](C)C(=O)N[C@@H](CC(C)C)C(=O)N[C@H](C(=O)N[C@@H](CO)C(=O)N[C@@H](Cc1c[nH]c2ccccc12)C(=O)N[C@H](C(=O)N[C@@H](CCCCN)C(=O)N[C@@H](CCCNC(=N)N)C(=O)N[C@@H](CCCCN)C(=O)N[C@@H](CCCNC(=N)N)C(=O)N[C@@H](CCC(N)=O)C(=O)N[C@@H](CCC(N)=O)C(N)=O)[C@@H](C)CC)[C@@H](C)CC)[C@@H](C)O)[C@@H](C)O)C(C)C)C(C)C [Melittin, reference compound]
- Degree of hemolysis [%] at 600 μg/mL: 96.3%
